This note sets out measurements from patent US20090239822A1, “Process for the preparation of esters of diacerein with hyaluronic acid and pharmaceutical compositions containing such esters” (priority 2006, published 2009).

One series can be described thus: Solubility. The note with it: in water.

For orientation: Solubility means the concentration that dissolves in the medium under given conditions. A low value points to a poorly soluble substance. As to Hyaluronic Acid Diacerein Ester, the pH in water was 7.0-8.0. Moreover, the Solubility in “Solubility” is more than 5 mg/mL.
